Patent US8735439B2, “Chlorin e6-folic acid conjugate, preparation method thereof, and a pharmaceutical composition for the treatment of cancer comprising the same” (Diatech Korea Co., Ltd., priority 2009, dated 2014)

Protein sequences, listed by entry. Tags and fused reporters are not part of them. Residues count along the entry.
UniProt P02768, 25-609: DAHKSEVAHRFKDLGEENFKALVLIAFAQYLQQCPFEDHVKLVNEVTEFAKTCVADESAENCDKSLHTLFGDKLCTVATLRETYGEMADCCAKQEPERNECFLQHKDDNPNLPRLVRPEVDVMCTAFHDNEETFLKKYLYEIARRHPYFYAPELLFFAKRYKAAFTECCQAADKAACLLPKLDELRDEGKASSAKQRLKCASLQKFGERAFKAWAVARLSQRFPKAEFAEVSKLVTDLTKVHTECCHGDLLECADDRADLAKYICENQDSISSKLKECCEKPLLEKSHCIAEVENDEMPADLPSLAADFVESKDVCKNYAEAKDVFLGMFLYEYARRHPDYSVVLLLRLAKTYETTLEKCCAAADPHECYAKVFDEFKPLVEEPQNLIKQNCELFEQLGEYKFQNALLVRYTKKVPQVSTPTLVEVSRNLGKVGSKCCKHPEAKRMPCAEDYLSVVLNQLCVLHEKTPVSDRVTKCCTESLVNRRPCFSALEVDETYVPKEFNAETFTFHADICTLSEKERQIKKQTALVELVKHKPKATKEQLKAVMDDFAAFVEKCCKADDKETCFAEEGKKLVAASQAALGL

Biological target: human serum albumin (Homo sapiens, UniProt P02768)
Excerpt: Pigment-protein complexes have been formed by adding to the solution of human serum albumin (HAS) a specific amount of photosensitizer dissolved in the same buffer. […] Similarly, the photosensitizer was included in detergent micelle (Triton X-100, C=10^−3M).
wherein r and C are the respectively concentrations of bound and unbound protein pigment, r+C=CΣ. […] It is also applicable with respect to pigment molecules included in Triton X-100 micelle.

## [γ-(6-aminohexyl)folic acid]-chlorin e6 [chlorin e6 conjugate]
  share of sensibilizer molecules involved in pigment-protein complex: 90%
